Reference: patent US20220211796A1, “PEPTIDE ANTIBIOTICS AND METHODS OF USE THEREOF” (priority 2019, published 2022)
Values after ≈ are worked out from the molar mass of the structure shown.

Assays:
B. subtilis ATCC 6633 = details: Table 5
Experimental: (§1) The L-peptides identified from five different phage display libraries were catalogued as described previously and selected sequences were synthesized in D-enantiomeric form by SPPS for further investigation in several biological assays.
(§2) MICs were determined according to a 96-well microdilution protocol outlined by the Clinical and Laboratory Standard Institute (CLSI) guideline with modifications for peptide antibiotics reported by Wiegand et al.^35 Two-fold serial peptide dilutions were performed to go from 2560 μg/ml to 5 μg/ml in0.2% BSA and 0.01% acetic acid buffer in 96-well polypropylene plates (COSTAR, #3879). Dilution of bacterial suspensions (1:200) of different bacterial strains that were grown until 0.5 McFarland standard were prepared to obtain a final inoculum concentration of 8×10^5 CFU/ml in Mueller-Hinton broth.

E. coli ATCC 25992 = details: Table 5
Experimental: as §1, §2

E. faecalis ATCC 29121 = details: Table 5
Experimental: as §1, §2

[1] = tested on: Methicillin-resistant S. aureus (MRSA) ATCC 43300; details: Table 5
Experimental: as §1, §2

S. aureus ATCC 6538 = details: Table 5
Experimental: as §1, §2

[2] = tested on: high level vancomycin resistant E. faecium (vanA) ATCC 51559; details: Table 5; high level vancomycin resistant E. faecium ATCC 51559
Experimental: as §1, §2

[3] = tested on: low level vancomycin resistant E. faecium (vanB) ATCC 51299; details: Table 5; low level vancomycin resistant E. faecium ATCC 51299
Experimental: as §1, §2

CC[C@H](C)[C@H](NC(=O)CN)C(=O)NCC(=O)N[C@@H](C)C(=O)N[C@H](C(=O)N[C@@H](CC(C)C)C(=O)N[C@@H](CCCCN)C(=O)N[C@H](C(=O)N[C@@H](CC(C)C)C(=O)N[C@H](C(=O)N[C@H](C(=O)NCC(=O)N[C@@H](CC(C)C)C(=O)N1CCC[C@H]1C(=O)N[C@@H](C)C(=O)N[C@@H](CC(C)C)C(=O)N[C@H](C(=O)N[C@@H](CO)C(=O)N[C@@H](Cc1c[nH]c2ccccc12)C(=O)N[C@H](C(=O)N[C@@H](CCCCN)C(=O)N[C@@H](CCCNC(=N)N)C(=O)N[C@@H](CCCCN)C(=O)N[C@@H](CCCNC(=N)N)C(=O)N[C@@H](CCC(N)=O)C(=O)N[C@@H](CCC(N)=O)C(N)=O)[C@@H](C)CC)[C@@H](C)CC)[C@@H](C)O)[C@@H](C)O)C(C)C)C(C)C [P2, Melittin, reference compound]
MIC B. subtilis (B. subtilis ATCC 6633): 2 µg/mL (≈ 0.703 µM) | MIC E. coli (E. coli ATCC 25992): 32 µg/mL (≈ 11.2 µM) | MIC E. faecalis (E. faecalis ATCC 29121): 8 µg/mL (≈ 2.81 µM) | MIC MRSA [1]: 4 µg/mL (≈ 1.41 µM) | MIC S. aureus (S. aureus ATCC 6538): 2 µg/mL (≈ 0.703 µM) | MIC VRE (vanA) [2]: 32 µg/mL (≈ 11.2 µM) | MIC VRE (vanB) [3]: 32 µg/mL (≈ 11.2 µM)
